Experimental findings from PubChem BioAssay AID845 (Columbia University Molecular Screening Center, 2007) are described below.

The entries are a selection whose mix differs from that of the whole data set. Activity calls are given as the source filed them.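 Rule for the calls: active = cell count reduction more than 3 SD above the screen-wide mean (cut at about 70% in these data); inactive = the rest.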

This test in a line: HUVEC cell count loss after compound exposure – imaging, Hoechst nuclear count, IL-1B stimulus, cytotoxicity control for IL-1B NFkB translocation project, primary screen (AID 845).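 Note: normalized per plate to untreated control cells as the no-loss baseline.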 As to conditions: IL-1B stimulated, at 2 µM, active compounds read high.
Turning to `ClCCSc1nnc(-c2cccnc2)o1`, the cell count reduction was inactive: -12.1%.
